Reference: patent US10759813B2, “Neprilysin inhibitors” (THERAVANCE BIOPHARMA R&D IP, LLC, priority 2010, dated 2020)

Amino acid sequences for entries named in this document (tags omitted). Residues count along the entry.
UniProt P08473, 52-750: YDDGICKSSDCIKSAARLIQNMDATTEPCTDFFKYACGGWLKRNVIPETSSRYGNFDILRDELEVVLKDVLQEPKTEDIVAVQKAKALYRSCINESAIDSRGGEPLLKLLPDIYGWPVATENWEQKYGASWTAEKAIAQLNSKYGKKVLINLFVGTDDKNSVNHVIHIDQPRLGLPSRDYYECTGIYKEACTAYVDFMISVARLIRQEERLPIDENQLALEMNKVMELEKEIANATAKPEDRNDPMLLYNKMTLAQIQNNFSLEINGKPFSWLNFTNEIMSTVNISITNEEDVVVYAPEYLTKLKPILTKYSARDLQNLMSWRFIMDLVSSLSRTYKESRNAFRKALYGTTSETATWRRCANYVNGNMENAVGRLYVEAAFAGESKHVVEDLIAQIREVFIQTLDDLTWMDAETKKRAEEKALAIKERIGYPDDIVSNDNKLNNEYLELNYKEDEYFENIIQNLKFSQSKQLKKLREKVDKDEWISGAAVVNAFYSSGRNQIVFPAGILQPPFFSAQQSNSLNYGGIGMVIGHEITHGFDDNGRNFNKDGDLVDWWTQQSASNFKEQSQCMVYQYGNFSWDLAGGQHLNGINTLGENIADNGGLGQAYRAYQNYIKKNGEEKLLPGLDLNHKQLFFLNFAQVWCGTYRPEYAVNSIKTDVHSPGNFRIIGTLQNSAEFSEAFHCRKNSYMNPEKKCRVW

Biological target: human neprilysin (EC 3.4.24.11; NEP) (Homo sapiens (Human), UniProt P08473)
Test: In vitro enzyme inhibition assay at human NEP (fluorogenic peptide substrate)
Format: biochemical
Conditions: pKi values at human NEP, recombinant human NEP
Method: In Vitro Assays for the Quantitation of Inhibitor Potencies at Human and Rat NEP, and Human ACE
The inhibitory activities of compounds at human and rat neprilysin (EC 3.4.24.11; NEP) and human angiotensin converting enzyme (ACE) were determined using in vitro assays as described below.
Recombinant human NEP and recombinant human ACE were obtained commercially (R&D Systems, Minneapolis, Minn., catalog numbers 1182-ZN and 929-ZN, respectively). The fluorogenic peptide substrate Mca-D-Arg-Arg-Leu-Dap-(Dnp)-OH (Medeiros et al. (1997) Braz. J. Med. Biol. Res. 30:1157-62; Anaspec, San Jose, Calif.) and Abz-Phe-Arg-Lys(Dnp)-Pro-OH (Araujo et al. (2000) Biochemistry 39:8519-8525; Bachem, Torrance, Calif.) were used in the NEP and ACE assays respectively.
The assays were performed in 384-well white opaque plates at 37° C. using the fluorogenic peptide substrates at a concentration of 10 μM in Assay Buffer (NEP: 50 mM HEPES, pH 7.5, 100 mM NaCl, 0.01% polyethylene glycol sorbitan monolaurate (Tween-20), 10 μM ZnSO4; ACE: 50 mM HEPES, pH 7.5, 100 mM NaCl, 0.01% Tween-20, 1 μM ZnSO4).
Test compounds were assayed over the range of concentrations from 10 μM to pM. […]
Plates were read on a fluorometer with excitation and emission wavelengths set to 320 nm and 405 nm, respectively. […]

“(R)-5-Biphenyl-4-yl-2-hydroxy-4-[(1H-tetrazole-5-carbonyl)amino]pentanoic acid [Example 14]” was tested, and the pKi was 8.0-8.9.
